The values that follow are results of earlier work, collected in article PMC6642186, “Molecular mechanism of setron-mediated inhibition of full-length 5-HT3A receptor” (Nature Communications, 2019).

The subject of this series is human 5-HT3AR with mutations at the Arg65 position. The arrangement: method as in PMID 28137449. Particulars: cited from earlier work.

Take `CN1C2CCCC1CC(NC(=O)c1nn(C)c3ccccc13)C2` (stereo not shown) [granisetron]: the “effect of mutations at the Arg65 position on binding” value is listed as “abolish granisetron binding”.
